Target: Mitogen-activated protein kinase 8 (Homo sapiens, UniProt P45983)
Assay: Inhibition of JNK1-mediated ATF2 phosphorylation

The chains behind the UniProt entries cited, without tags or fusion partners. Where a name states a change or a piece, a line headed by the entry shows the natural chain unless it says otherwise.
UniProt P45983: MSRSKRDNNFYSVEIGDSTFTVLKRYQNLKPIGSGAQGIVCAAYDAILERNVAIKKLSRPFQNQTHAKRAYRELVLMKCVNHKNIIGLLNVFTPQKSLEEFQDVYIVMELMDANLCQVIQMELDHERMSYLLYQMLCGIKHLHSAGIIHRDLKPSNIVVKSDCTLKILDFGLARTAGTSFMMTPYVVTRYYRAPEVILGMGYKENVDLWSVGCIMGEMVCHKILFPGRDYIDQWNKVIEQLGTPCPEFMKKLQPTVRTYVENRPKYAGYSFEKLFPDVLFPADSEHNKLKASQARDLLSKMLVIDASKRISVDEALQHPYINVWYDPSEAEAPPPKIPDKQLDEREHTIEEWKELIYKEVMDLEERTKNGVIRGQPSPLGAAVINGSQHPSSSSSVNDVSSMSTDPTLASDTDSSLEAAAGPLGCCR

SMILES: CCOc1nc(NC(=O)Cc2cc(OC)c(Br)cc2OC)cc(N)c1C#N
- IC50: 77 nM

Reference: ChEMBL document CHEMBL1148638, “Aminopyridine-based c-Jun N-terminal kinase inhibitors with cellular activity and minimal cross-kinase activity” (J Med Chem, 2006)
